The values that follow come from patent publication US8207216B2, “Benzofuran-3-yl(indol-3-yl) maleimides as potent GSK3 inhibitors” (The Board of Trustees of the University of Illinois, priority 2006, dated 2012).

By UniProt entry, the sequences of proteins in these tests, tags left out.
UniProt Q00535, whole entry, species assumed: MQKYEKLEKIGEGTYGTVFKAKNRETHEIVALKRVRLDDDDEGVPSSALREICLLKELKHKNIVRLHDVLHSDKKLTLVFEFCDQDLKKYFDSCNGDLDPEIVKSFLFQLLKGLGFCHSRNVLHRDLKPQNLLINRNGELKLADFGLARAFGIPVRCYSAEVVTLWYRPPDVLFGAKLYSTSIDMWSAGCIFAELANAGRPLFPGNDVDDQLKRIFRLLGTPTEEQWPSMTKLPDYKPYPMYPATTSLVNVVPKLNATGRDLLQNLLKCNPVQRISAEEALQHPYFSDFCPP
UniProt Q00526, whole entry, species assumed: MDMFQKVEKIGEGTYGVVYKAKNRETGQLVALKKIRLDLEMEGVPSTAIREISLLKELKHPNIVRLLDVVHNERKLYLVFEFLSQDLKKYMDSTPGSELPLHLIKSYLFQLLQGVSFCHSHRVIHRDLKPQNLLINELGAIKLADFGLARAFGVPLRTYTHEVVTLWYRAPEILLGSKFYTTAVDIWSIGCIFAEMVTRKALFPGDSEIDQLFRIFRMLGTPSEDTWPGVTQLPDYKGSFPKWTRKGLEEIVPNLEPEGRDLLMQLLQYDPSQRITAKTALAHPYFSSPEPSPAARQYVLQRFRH

One assay relates to HupT3. Briefly: Antiproliferation MTS assay, pancreatic cancer cells. It counts as cell-based. The following applies: Homo sapiens. As to the method: (§1) The pancreatic cancer cell lines BxPc-3, HupT3, MiaPaCa-2, Panc 04.03, and SU86.86 were obtained from ATCC (Rockville, Md.) and were grown in medium (DMEM or RPMI) containing 10% fetal calf serum and L-glutamine. Pancreatic cancer cells were plated out in duplicate into 6-wells of a 96-well microtiter plate at 2.5−4×10^3 cells per well. Four-hours post plating, individual wells were treated with diluent (DMSO) or varying concentrations of commercial compounds, AR-A014418 and SB216763, or the indicated GSK inhibitors of this invention from a concentration of 1 nM to 50 microM. […] The IC50s were calculated using XLfit (IDBS Limited, Guildford, UK).

Another assay deals with MIAPaCa-2. Described as above. It counts as cell-based. The following applies: Homo sapiens. As to the method:
as §1

The subject of the next assay is BXPC-3. Described as above. It counts as cell-based. The following applies: Homo sapiens. The method, then: as §1
The target of a further assay is CDK-2/cyclinE (Homo sapiens, UniProt P24941). Briefly: CDK-2/CyclinE inhibition (Reaction Biology). The following applies: selectivity ratio.
A further assay addresses CDK-5/P25 (Homo sapiens, UniProt Q00535). Briefly: CDK panel (Reaction Biology). The format is biochemical.
The target of the next assay is CDK-2/cyclinA (Homo sapiens, UniProt P24941). Put plainly: CDK panel (Reaction Biology). It counts as biochemical. The conditions noted are these: 2nd data row; CDK-2/cyclinA by row order of Table 6A.
Another assay addresses CDK-5/P35 (Homo sapiens, UniProt Q00535). Put plainly: CDK panel (Reaction Biology). The format is biochemical.
The target of another assay is CDK-3/cyclinE (Homo sapiens, UniProt Q00526). The following applies: 3rd data row; CDK-3/cyclinE by row order of Table 6A.
The mark [1] stands for this setting: BXPC-3, as reported in Gaisina et al. (2009) J. Med. Chem. 52(7), 1853-1863.
[2] abbreviates: tested at Reaction Biology, Inc.

For `Cn1cc(C2=C(c3coc4ccc(F)cc34)C(=O)NC2=O)c2cc(I)ccc21` [Compound 29, 3-(5-Fluoro-benzofuran-3-yl)-4-(5-iodo-1-methyl-1H-indol-3-yl)-pyrrole-2,5-dione], the IC50 amounted to 42 ± 8.3 µM in the assay on HupT3 (HuP-T3, as reported in Gaisina et al. (2009) J. Med. Chem. 52(7), 1853-1863); 42 µM with HupT3 (HuP-T3, 72 hrs, MTS); 28 ± 4.1 µM with MIAPaCa-2 (MIA PaCa-2, as reported in Gaisina et al. (2009) J. Med. Chem. 52(7), 1853-1863); 28 µM in the assay with MIAPaCa-2 (MIA PaCa-2, 72 hrs, MTS); 42 ± 7.6 µM with BXPC-3 (setting [1]); 42 µM with BXPC-3 (BXPC-3, 72 hrs, MTS).

On to `Cn1cc(C2=C(c3coc4cc(CO)ccc34)C(=O)NC2=O)c2cc(F)ccc21` [Compound 7, 3-(5-Fluoro-1-methyl-1H-indol-3-yl)-4-(6-hydroxymethyl-benzofuran-3-yl)-pyrrole-2,5-dione], for which the “IC50 Ratio CDK-2/cyclinE GSK-3β” value at CDK-2/cyclinE is given as 670.

`Cn1cc(C2=C(c3coc4cc(CO)ccc34)C(=O)NC2=O)c2cc(F)c(Cl)cc21` [Compound 13, 3-(6-Chloro-5-fluoro-1-methyl-1H-indol-3-yl)-4-(6-hydroxymethyl-benzofuran-3-yl)-pyrrole-2,5-dione]: the “IC50 Ratio (CDK/GSK-3β)” value on CDK-5/P25 (5th data row, CDK-5/P25 by row order of Table 6A) is listed as 19800; on CDK-2/cyclinA it was 11100; at CDK-5/P35 (6th data row, CDK-5/P35 by row order of Table 6A) it was 16900; on CDK-3/cyclinE it was 26400. Also, the IC50 on CDK-5/P25 (setting [2]) is 18.9 µM; on CDK-5/P35 (setting [2]), 16.1 µM.

Consider `Cn1cc(C2=C(c3coc4ccccc34)C(=O)NC2=O)c2cc(I)ccc21` [Compound 28, 3-Benzofuran-3-yl-4-(5-iodo-1-methyl-1H-indol-3-yl)-pyrrole-2,5-dione], for which the half-maximal inhibitory concentration (IC50) in the assay with BXPC-3 (setting [1]) turned out to be 33 ± 4 µM; with BXPC-3 (BXPC-3, 72 hrs, MTS) it was 33 µM.

On to `COCc1cccc2c(C3=C(c4coc5ccccc45)C(=O)NC3=O)cn(C)c12` [Compound 52, 3-Benzofuran-3-yl-4-(7-methoxymethyl-1-methyl-1H-indol-3-yl)-pyrrole-2,5-dione], for which, at CDK-3/cyclinE, the “IC50 Ratio (CDK/GSK-3β)” value was 14700.
